Data taken from patent US20210252032A1, “DRUGS FOR GRP78 CELL SURFACE TRANSLOCATION AND PAR-4 SECRETION” (University of Kentucky Research Foundation, priority 2020, published 2021).

Tested on: ALK-negative A549 lung tumor cells
Experiment: GRP78 cell surface expression in A549 lung tumor cells (FIG. 1)
Format: cell-based

C[C@@H](Oc1cc(-c2cnn(C3CCNCC3)c2)cnc1N)c1c(Cl)ccc(F)c1Cl [CZT, Crizotinib]
Par-4 receptor GRP78 on the cell surface: elevated
